{
  "source": "paper PMC3967229",
  "about": "“Largazole Pharmacokinetics in Rats by LC-MS/MS” (Marine Drugs, 2014)",
  "key": {"[1]": {"test": "Stability of largazole thiol in human plasma (short-term, freeze/thaw)", "assay_type": "in vitro ADME", "details": "for Stability, DEV (%) / Stability, Measured (mean): n=3", "method": "To test the stability of largazole thiol, three replicates each of low and high concentrations were thawed at room temperature for 6 h to test the short-term stability. Samples at low and high concentrations were thawed at room temperature and refrozen at −20 °C for three cycles and then assayed. The matrix effect was studied by analyzing QC samples of largazole thiol in the mobile phase and extracts of plasma. Six samples at three concentration levels were prepared to calculate the matrix effect."}, "[2]": {"test": "Plasma protein binding by ultrafiltration, human plasma", "assay_type": "in vitro ADME", "details": "for Protein binding (%) Human (mean ± S.D.): n=3", "method": "(§1) The non-specific binding of the compound to the membrane was 15.86%. PB%= (1 − Cf/(1 − NSB)/C0) × 100% (3) where PB is protein binding, Cf is the concentration in the filtrate, C0 is initial concentration and NSB is non-specific binding.\n(§2) Protein binding of largazole thiol was performed in human and rat plasma at 0.5, 2 and 5.0 µg/mL, using the ultrafiltration method. Briefly, following the incubation of largazole thiol in plasma at 37 °C for 0.5 h, plasma containing the drug was loaded into the Centrifree® Ultrafiltration Device (Millipore Corp., Carrigtwohill, Ireland), and the filtrate device was centrifuged at 1,800× g for 25 min at 37 °C. Concentrations of the total drug before centrifugation and the free drug in the filtrate were extracted, and the residues were assayed by HPLC-MS/MS. PBS was used to test for nonspecific binding."}, "[3]": {"test": "Pharmacokinetics study in rats, i.v. bolus of largazole, plasma largazole thiol by LC-MS/MS", "assay_type": "in vivo, Male Sprague Dawley rats", "method": "The pharmacokinetics of largazole thiol was analyzed in rats after administration of a 10-mg/kg intravenous bolus of largazole and samples taken between zero and 5 h. […] The population pharmacokinetic model was developed using a non-linear mixed-effects modeling approach. A two-compartment model best describes the disposition of largazole in rats. The pharmacokinetics parameters of largazole thiol in rats are detailed in Table 8. The calculations assume a complete conversion of largazole to its thiol. The individual observed and predicted concentration-time profiles are depicted in Figure 5. […] The plots of the observed (OBS) concentrations vs. the model predicted (PRED) concentrations and OBS vs. individual predicted (IPRED) concentrations are shown in the top panel of Figure 6.\nThe non-compartmental pharmacokinetic analysis was utilized to obtain the steady-state pharmacokinetic parameters of each individual’s concentration-time profile, using WinNonLin version 6.3 (Pharsight Corp., Sunnyvale, CA, USA). Table 9 lists the summary statistics for the pharmacokinetic parameters on the observed concentration-time profiles.\nMale Sprague Dawley rats (Charles River Laboratories International, Inc., Wilmington, MA, USA) weighing 240–260 g were used for the pharmacokinetic study of largazole. The pharmacokinetics of largazole was performed in rats by intravenous administration of 10 mg/kg. Largazole was formulated by dissolving in 20% ethanol, 20% DMSO, 20% PEG400 and 40% normal saline. A heparinized blood sample at 0.3–0.4 mL was collected from a sublingual vein puncture, according to the following schedule: 0, 0.12, 0.22, 0.33, 0.5, 0.75, 1, 1.5, 2, 3 and 5 h post-drug administration. The collected blood sample was placed on ice immediately, and plasma was separated from the blood sample by centrifugation at 2400× g for 20 min immediately after collection. Plasma samples were kept frozen at −80 °C until analysis by LC-MS/MS. The study was approved by the Institutional Animal Care and Use Committee of the University of Florida.\nThe population pharmacokinetic model was developed using a non-linear mixed-effects modeling approach. The first-order conditional maximum likelihood estimation in the NONMEM program (double precision, version 7.2, ICON Development Solutions, Elliott City, MD, USA) and NM-TRAN pre-processor were used. The subroutines within NONMEM were linear mammillary models (ADVAN3 used with TRANS4 in the PREDPP library) to investigate a two-compartment, intravenous model.\nThe non-compartmental pharmacokinetic analysis was utilized to obtain the steady-state pharmacokinetic parameters of each individual’s concentration-time profile, using the software, WinNonLin v5.3 (Pharsight, Mountain View, CA, USA)."}, "[4]": {"test": "Non-specific binding to the ultrafiltration membrane (PBS)", "assay_type": "in vitro ADME", "details": "Centrifree ultrafiltration device", "method": "as §1, §2"}, "[5]": {"test": "Plasma protein binding by ultrafiltration, rat plasma", "assay_type": "in vitro ADME", "details": "for Protein binding (%) Rat (mean ± S.D.): n=3", "method": "as §1, §2"}, "[6]": {"details": "4 h at room temperature, nominal 37.5 ng/mL"}, "[7]": {"details": "4 h at room temperature, nominal 300 ng/mL"}, "[8]": {"details": "Freeze/thaw cycle no. 1, nominal 37.5 ng/mL"}, "[9]": {"details": "Freeze/thaw cycle no. 1, nominal 300 ng/mL"}, "[10]": {"details": "Freeze/thaw cycle no. 2, nominal 37.5 ng/mL"}, "[11]": {"details": "Freeze/thaw cycle no. 2, nominal 300 ng/mL"}, "[12]": {"details": "Freeze/thaw cycle no. 3, nominal 37.5 ng/mL"}, "[13]": {"details": "Freeze/thaw cycle no. 3, nominal 300 ng/mL"}, "[14]": {"details": "population PK two-compartment model, rat, 10 mg/kg i.v. largazole"}, "[15]": {"details": "rat, single i.v. bolus 10 mg/kg largazole"}},
  "note": "“Also recorded” adds a separate entry of the source.",
  "data": [
    {"substance": "largazole thiol", "values": [
      {"measurement": "Stability, DEV (%)", "setting": "[1]; [6]", "result": 11.73, "unit": "%"},
      {"measurement": "Stability, Measured (mean)", "setting": "[1]; [6]", "result": 41.90},
      {"measurement": "Stability, DEV (%)", "setting": "[1]; [7]", "result": 6.78, "unit": "%"},
      {"measurement": "Stability, Measured (mean)", "setting": "[1]; [7]", "result": 320.33},
      {"measurement": "Stability, DEV (%)", "setting": "[1]; [8]", "result": 5.87, "unit": "%"},
      {"measurement": "Stability, Measured (mean)", "setting": "[1]; [8]", "result": 39.70},
      {"measurement": "Stability, DEV (%)", "setting": "[1]; [9]", "result": 11.89, "unit": "%"},
      {"measurement": "Stability, Measured (mean)", "setting": "[1]; [9]", "result": 335.67},
      {"measurement": "Stability, DEV (%)", "setting": "[1]; [10]", "result": 9.68, "unit": "%"},
      {"measurement": "Stability, Measured (mean)", "setting": "[1]; [10]", "result": 41.13},
      {"measurement": "Stability, DEV (%)", "setting": "[1]; [11]", "result": "−0.56", "unit": "%"},
      {"measurement": "Stability, Measured (mean)", "setting": "[1]; [11]", "result": 298.33},
      {"measurement": "Stability, DEV (%)", "setting": "[1]; [12]", "result": 7.73, "unit": "%"},
      {"measurement": "Stability, Measured (mean)", "setting": "[1]; [12]", "result": 40.40},
      {"measurement": "Stability, DEV (%)", "setting": "[1]; [13]", "result": 5.22, "unit": "%"},
      {"measurement": "Stability, Measured (mean)", "setting": "[1]; [13]", "result": 315.67},
      {"measurement": "Short-term stability test, differences", "setting": "[1]; human plasma, room temperature", "result": "≤ 11.73", "unit": "%"},
      {"measurement": "Stability of plasma samples over freeze and thaw cycles", "setting": "[1]; three freeze and thaw cycles", "result": "stable"},
      {"measurement": "Protein binding (%) Human (mean ± S.D.)", "setting": "[2]; drug concentration 0.5 µg/mL", "result": "92.52 ± 0.083", "unit": "%"},
      {"measurement": "Protein binding (%) Human (mean ± S.D.)", "setting": "[2]; drug concentration 2 µg/mL", "result": "89.38 ± 0.94", "unit": "%"},
      {"measurement": "Protein binding (%) Human (mean ± S.D.)", "setting": "[2]; drug concentration 5 µg/mL", "result": "88.48 ± 0.23", "unit": "%"},
      {"measurement": "Free drug component", "setting": "[2]; human plasma", "result": 10, "unit": "%"},
      {"measurement": "Plasma protein binding, overall mean", "setting": "[2]; human plasma, ultrafiltration, mean over 0.5, 2 and 5 µg/mL", "result": 90.13, "unit": "%"},
      {"measurement": "Interindividual variability, %CV of CL (ωCL)", "setting": "[3]; population PK model, rat, 10 mg/kg i.v. largazole", "result": 6.06, "unit": "%"},
      {"measurement": "Interindividual variability, %CV of Vc (ωV)", "setting": "[3]; population PK model, rat, 10 mg/kg i.v. largazole, fixed", "result": 31.6, "unit": "%"},
      {"measurement": "Inter compartment clearance (Q)", "setting": "[3]; [14]", "result": 442, "unit": "mL/min/kg"},
      {"measurement": "Volume of central compartment (Vc)", "setting": "[3]; [14]", "result": 21.8, "unit": "L/kg"},
      {"measurement": "Volume of peripheral compartment (Vp)", "setting": "[3]; [14]", "result": 17.4, "unit": "L/kg"},
      {"measurement": "Plasma drug concentration after 2 h post-dose", "setting": "[3]; rat, 10 mg/kg i.v. bolus of largazole, 10 mg/kg", "result": "below the quantifiable limit; also recorded: undetectable"},
      {"measurement": "Time to elimination from systemic circulation", "setting": "[3]; rat, i.v. 10 mg/kg", "result": "≤ 2", "unit": "h"},
      {"measurement": "Plasma largazole thiol concentration within an hour post-administration", "setting": "[3]; [15]", "result": "less than 10 ng/mL"},
      {"measurement": "Plasma largazole thiol concentration, initial", "setting": "[3]; [15]", "result": "about 300 ng/mL"},
      {"measurement": "Clearance compared to romidepsin", "setting": "[3]; ratio largazole thiol / romidepsin", "result": "about two-fold"},
      {"measurement": "Non-specific binding to the membrane", "setting": "[4]", "result": 15.86, "unit": "%"},
      {"measurement": "Protein binding (%) Rat (mean ± S.D.)", "setting": "[5]; drug concentration 0.5 µg/mL", "result": "79.27 ± 1.85", "unit": "%"},
      {"measurement": "Protein binding (%) Rat (mean ± S.D.)", "setting": "[5]; drug concentration 2 µg/mL", "result": "74.39 ± 1.95", "unit": "%"},
      {"measurement": "Protein binding (%) Rat (mean ± S.D.)", "setting": "[5]; drug concentration 5 µg/mL", "result": "77.75 ± 0.86", "unit": "%"},
      {"measurement": "Free drug component", "setting": "[5]; rat plasma", "result": 23, "unit": "%"},
      {"measurement": "Plasma protein binding, overall mean", "setting": "[5]; rat plasma, ultrafiltration, mean over 0.5, 2 and 5 µg/mL", "result": 77.14, "unit": "%"}
    ]}
  ]
}
